Consider one compound from US20020183384A1, “Methods of treating nuclear factor-kappa B mediated diseases and disorders” (priority 2001, published 2002).

SMILES strings stand for the structures.

This assay relates to NF-κB mediated transcription. Briefly: NF-κB driven β-lactamase reporter assay in ECV-304 NF-κB.βlaZ cells (AURORA CCF2 fluorescence). It is filed as cell-based, human. The conditions noted are these: 10 μM compound; ECV-304 NF-κB.βlaZ cells stimulated with 10 ng/mL TNF-α or 100 pg/mL IL-1β, 6 hours at 37° C.; inhibition of maximum blue/green ratio. An excerpt:
Introduction: Described below is an in vitro, cell-based, high throughput screening assay that reliably identifies inhibitors of NF-κB mediated transcription. While the assay described below utilized inhibitors which were sulfonylaminocarbonyl derivatives useful in the present invention, the assay may be used to screen for any inhibitor of NF-κB mediated transcription.
The assay takes advantage of AURORA (Aurora Bioscience Corporation, La Jolla, Calif.) fluorescence technology. […] Visually, the uncleaved green fluorescent substrate is sequestered intracellularly and emits green fluorescence, while the cleaved product emits blue fluorescence. Fluorescence is quantitated spectrophotometrically, and the spectral intensity of blue fluorescence versus green fluorescence can be used to calculate the degree of activation of NF-κB.
The assay was performed as outlined here and described in detail below. […] After one additional hour, the plates were read in a fluorometer at the blue 395 nm/460 nm (excitation/emission) and green 395 nm/530 nm wavelengths. Then the blue/green emission ratio was calculated. Percent inhibition was calculated by comparing fluorescence in the presence of a sulfonylaminocarbonyl derivative useful in the present invention with fluorescence in the absence of said sulfonylaminocarbonyl derivative under conditions of maximum stimulation with TNF-α or IL-1β. […]
In general terms: A reporter such as luciferase makes a cellular process visible.

`CC(C)CCN(CCC(C)C)S(=O)(=O)NC(=O)Nc1c(C(C)C)cccc1C(C)C` [Example 74, Urea, N-[[bis(3-methylbutyl)amino]sulfonyl]-N′-[2,6-bis(1-methylethyl)phenyl]-]: the “Percent Inhibition at 10 μM” value is given as 37.58%.
